Reference: paper PMC5320532 (2017)

Assays:
[1] = Intracellular compound accumulation (Kp) and intracellular bioavailability (Fic); conditions: human, freshly isolated human hepatocytes in suspension
[2] = as above; conditions: human, human hepatocytes cultured for 24 h in monolayer format
P-gp [3] = assay: as above; conditions: dog, P-gp-transfected MDCK cells
P-gp [4] = assay: as above; conditions: dog, P-gp-KO (CRISPR) MDCK cells
P-gp [5] = assay: as above; conditions: dog, MDCK II wild-type cells
[6] = as above; conditions: human, mock-transfected HEK293 cells
[7] = system: freshly isolated human hepatocytes in suspension; assay: as above; conditions: Suspension hepatocytes (freshly isolated human); geometrical mean ± S.E.M.
[8] = system: human hepatocytes cultured for 24 h in monolayer format; assay: as above; conditions: Monolayer hepatocytes (human, 24 h culture); geometrical mean ± S.E.M.
[9] = system: mock-transfected HEK293 cells; assay: as above; conditions: 0.1 μM, geometrical mean ± S.E.M.

CC(C)NCC(O)COc1cccc2ccccc12 (stereo not shown) [Propranolol]
Kp at 45 min [1]: 66 ± 16
Kp at 24 h [2]: 1540 ± 87

CC(C)c1nc(CN(C)C(=O)N[C@H](C(=O)N[C@@H](Cc2ccccc2)C[C@H](O)[C@H](Cc2ccccc2)NC(=O)OCc2cncs2)C(C)C)cs1 [Ritonavir]
Kp at 45 min, 0.5 μM (P-gp [3]): 69 ± 4
Kp at 45 min [1]: 175 ± 54
Kp at 24 h [2]: 616 ± 151
Kp at 45 min, 0.5 μM (P-gp [4]): 108 ± 35
Kp at 45 min (P-gp [5]): 85 ± 3
Kp at 45 min, 0.1 μM [6]: 77 ± 10

COCc1c(C(C)C)nc(C(C)C)c(/C=C/[C@@H](O)C[C@@H](O)CC(=O)O)c1-c1ccc(F)cc1 [Cerivastatin]
intracellular accumulation (Kp) [7]: 230±44
intracellular accumulation (Kp) [8]: 789±22
intracellular accumulation (Kp) [9]: 34±3

O=C(O)C[C@H](O)C[C@H](O)/C=C/c1c(C2CC2)nc2ccccc2c1-c1ccc(F)cc1 [Pitavastatin]
Kp at 45 min [1]: 60 ± 15
Kp at 24 h [2]: 118 ± 10
